Results from PubChem BioAssay AID651965 (National Center for Advancing Translational Sciences (NCATS), 2013).
Only a part is listed here, and it is no random draw. Inconclusive results are not listed. Active and inactive are the calls of the source. The call rests on the fitted dose curve; in most records, active means well fitted falling curve with a large enough effect; inconclusive means small, poorly fitted or top-dose-only effect; inactive means no such curve, though single readings can be large or run the other way.

Amino acid sequences for entries named in this document (tags omitted). A change or cut given only in a name is not applied to a line headed by its entry.
UniProt P80244: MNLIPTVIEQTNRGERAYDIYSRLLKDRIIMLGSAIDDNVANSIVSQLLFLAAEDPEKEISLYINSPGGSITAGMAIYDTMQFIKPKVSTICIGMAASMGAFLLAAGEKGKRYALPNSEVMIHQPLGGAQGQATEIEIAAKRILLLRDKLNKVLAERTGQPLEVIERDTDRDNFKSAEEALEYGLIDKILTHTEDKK

The compounds below were run against ATP-dependent Clp protease proteolytic subunit (Bacillus subtilis (strain 168)) (UniProt P80244) (assay: qHTS Assay for Activators of ClpP). Conditions: purified B. subtilis ClpP, FRET peptide cleavage, 20 min.
Further: the source files actives as falling curves though it sought activators and does not explain the sign; nearly all actives have a fitted effect of over 65% in size.
Potency means the concentration at half of the fitted maximal effect.

Row | SMILES | Potency
1 | CCc1cc(O)c([N+](=O)[O-])c(C)c1[N+](=O)[O-] | active: 28.2 µM
2 | O=P(Nc1nccs1)(c1ccccc1)c1ccccc1 | active: 22.4 µM
